Screening results from PubChem BioAssay.
miR-21 reporter – miR-21 reporter, rising signal; HeLa miR-21 FLuc reporter, luciferase, 48 h; Potency, µM (doses to about 38.3 µM); 340,000 tested, under 10 active; AID 2288; active = well fitted rising curve with a large enough effect; inconclusive = small, poorly fitted or top-dose-only effect; inactive = no such curve, though single readings can be large or run the other way;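 further: miR-21 action dims this reporter so a rising signal means less miR-21 action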
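HeLa cells endogenously expressing miR-21, stably carrying CMV-driven firefly luciferase with a downstream miR-21 binding site, 2000 cells/well. Titrations up to approximately 40 uM, 48 hours; luciferase luminescence read.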
A549 viability – counter-screen for Nrf2 inhibitors: cytotoxicity in A549 cells; Potency, µM (doses to about 46 µM), most hits filed as inhibitors; 390,000 compounds, 0.16% hits; A549 ARE-Fluc cells, CellTiter-Fluor viability, 18-24 h
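Cytotoxicity counterscreen: CellTiter-Fluor fluorescence was measured in A549 ARE_Fluc cells after 18-24 h of compound exposure in a concentration series. The subsequent BugLite luminescent read reports ARE-luciferase activity.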
IL2 activator – activators of IL-2. IL-2 activation reporter assay, cell-based qHTS; stimulated with anti-CD3/CD4/CD28 beads; in transgenic mouse T cells. activation, % (series mostly up to about 46 µM). 360,000 compounds, 0.065% hits. AID 652025; in the data active = activation above about 50%; inconclusive = mostly about 30% to 49%
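Readout: EGFP and DsRed signals by fluorescent plate cytometry. Unstimulated transgenic mouse T cells received compound 60 min before antibody-bead stimulation, then incubated 18 h at 37 degrees C.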
Nrf2 activator – activators of Nrf2 (ARE) signaling; AREc32 ARE-luciferase reporter (MCF7-derived line), luminescence, 24 h; AID 624171; 410,000 compounds, 0.31% hits; Potency, µM (top dose mostly 46.1 µM), most hits filed as activators; also: nearly all actives have a fitted effect of over 65% in size
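Each well held 1000 AREc32 cells, which were incubated with compound for 24 hr at 37 deg C after overnight attachment, and ARE reporter activity was quantified by firefly luciferase luminescence.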
Nrf2 block – blocks Nrf2 signaling; A549 ARE-Fluc reporter, luciferase luminescence, 18-24 h; Potency, µM (highest dose often 46 µM), hits mostly inhibitors; 360,000 compounds, 2.1% hits; also: nearly all actives have a fitted effect of over 60% in size
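Cells were seeded and rested 2 h, then exposed to compounds for 18-24 h. CellTiter-Fluor was read first as a viability measure. BugLite was added 15 min before the final luminescent read of ARE-luciferase activity in A549 cells.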
ClpP mod – qHTS Assay for Activators of ClpP. ATP-dependent Clp protease proteolytic subunit (Bacillus subtilis (strain 168)), P80244. purified B. subtilis ClpP, FRET peptide cleavage, 20 min. Potency, µM (top dose mostly 57.5 µM). 340,000 compounds, 1.9% hits; active = well fitted falling curve with a large enough effect; inconclusive = small, poorly fitted or top-dose-only effect; inactive = no such curve, though single readings can be large or run the other way; also: the source files actives as falling curves though it sought activators and does not explain the sign; nearly all actives have a fitted effect of over 65% in size
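ClpP 10 microg/mL final, pH 8 Tris/KCl buffer with BSA, glycerol, Tween-20; compound pinned in; FRET-FV substrate; RT 20 min; Ex320/Em430; ΔFRET vs ADEP 5.8 microM, DMSO, no enzyme.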
Of the large screens only hits and unclear results are named; the others gave an inactive call. In the library only some 3.7% were active in any assay of this set; here they are far more common. Unless noted, calls follow the shape of the dose curve; as a rule, active = well fitted curve in the direction sought with a large enough effect; inconclusive = small, poorly fitted or top-dose-only effect, or another doubt; inactive = no such curve, though single readings can be large; an effect the other way counts as inactive or inconclusive.

Cc1cc(N/C=C/C(=O)c2ccccc2)ccc1Br	Nrf2 activator 5.6µM, Nrf2 block inconclusive
CCOC(=O)c1ccc(N/C=C/C(=O)c2ccccc2)cc1	Nrf2 block inconclusive (no result: ClpP mod)
O=C(CSc1nnc(-c2ccccc2)c(-c2ccccc2)n1)NCCc1ccccc1	none (no result: IL2 activator, Nrf2 block)
Cc1cc(C)cc(N2CC(c3nc(-c4ccccc4C)no3)CC2=O)c1 (centres undefined)	none (no result: IL2 activator)
CN1c2ccccc2C(C)(C)C12C=Nc1c(cc(N3CCOCC3)c3ccccc13)O2 (centres undefined)	miR-21 reporter inconclusive, ClpP mod 28µM
CCOC(=O)CCNCc1ccc(F)cc1	ClpP mod 18µM
CC(C)(C)S(=O)(=O)c1ccc2nc3c(n2c1)CCCC3	ClpP mod 28µM
Brc1ccc2nc3c(n2c1)CCCC3	none
CCC(C)[C@H](NC(=O)OC(C)(C)C)C(=O)N/N=C/c1ccc2cc(OC)ccc2n1 (some centres undefined)	ClpP mod inconclusive
COc1ccc2nc(/C=N/NC(=O)[C@H](CCSC)NC(=O)OC(C)(C)C)ccc2c1	ClpP mod 8.9µM
COCCC1CCCCN1C(=O)c1cc(COc2ccc(C)nc2)on1 (centres undefined)	Nrf2 block inconclusive
COCCCC1CCN(C(=O)c2cc(COc3ccc(C)nc3)on2)CC1	Nrf2 block inconclusive, ClpP mod 28µM
Cc1ccc(OCc2cc(C(=O)NC3CCc4ccccc43)no2)cn1 (centres undefined)	Nrf2 block 13µM
Cc1nn(C(C)C(=O)NCc2cccc(F)c2)c(=O)c2c1sc1ccccc12 (centres undefined)	none (no result: IL2 activator)
COc1ccccc1NC(=O)C1=C(C)Nc2nc(SCc3ccccc3Cl)nn2C1c1cccnc1 (centres undefined)	none (no result: IL2 activator)
Cc1nc(-c2ccccc2)[nH]c(=O)c1Oc1ccc(Cl)cc1Cl	Nrf2 block 21µM
CCC1CN(C(=O)N2CCC(C(=O)NCCC3=CCCCC3)CC2)c2ccccc2O1 (centres undefined)	none (no result: IL2 activator)
O=C(/C=C/c1cccnc1)c1ccc([N+](=O)[O-])cc1	miR-21 reporter inconclusive (no result: ClpP mod)
COc1cc(C(=O)/C=C/c2cccnc2)c([N+](=O)[O-])cc1OC	A549 viability inconclusive, Nrf2 block 18µM (no result: miR-21 reporter)
COc1ccc(CNC(=O)C2CCN(c3nc4ccccc4[nH]3)CC2)c(OC)c1	none (no result: IL2 activator, Nrf2 block)
CCc1ccc(NC(=O)Cn2c(=O)n(CCC(=O)NCCc3ccc(Cl)cc3)c(=O)c3ccccc32)cc1	none (no result: IL2 activator)
CCN(Cc1ccccc1)C(=O)c1ccc(NC(=O)c2ccc(OC)cc2)cc1	Nrf2 block 23µM
COc1ccc(C(=O)Nc2ccc(C(=O)c3ccccc3)cc2)cc1	Nrf2 block 9.2µM (no result: miR-21 reporter, ClpP mod)
COc1ccc(NC(=O)C#Cc2ccccc2)cc1	Nrf2 activator 14µM
COc1ccc(NC(=O)C2(c3ccc(NC(=O)c4ccc(OC)cc4)cc3)CCCC2)cc1	ClpP mod 28µM
CCCc1cc(C(=O)Nc2ccc(C(=O)c3ccccc3)cc2)n(C)n1	A549 viability inconclusive, Nrf2 block 21µM
COc1ccc(NC(=O)CN(C)C(=O)C2(c3ccccc3)CCCC2)cc1	Nrf2 block 8.2µM (no result: miR-21 reporter, ClpP mod)
CCOc1ccc(N(c2nc(-c3ccc(OC)c(OC)c3)no2)c2nc(-c3ccc(OC)c(OC)c3)no2)cc1	none (no result: IL2 activator)
Cc1ccc(OCC(=O)Nc2ccc(O)c(C(=O)O)c2)cc1C	ClpP mod 22µM
Cc1ccc2nc(N(CCCN(C)C)C(=O)c3ccc(S(=O)(=O)N4CCc5ccccc5C4)cc3)sc2c1	A549 viability inconclusive, Nrf2 block 21µM
CN(C)CCCN(C(=O)c1ccc(S(=O)(=O)N2CCc3ccccc3C2)cc1)c1nc2ccc(F)cc2s1	miR-21 reporter inconclusive, A549 viability inconclusive, Nrf2 block inconclusive, ClpP mod inconclusive
CC1=NN(c2ccccc2)C(=O)C1C(=O)c1ccccc1 (centres undefined)	Nrf2 block inconclusive
CC1=NN(c2ccccc2)C(=O)C1C(=O)c1ccc(Cl)cc1 (centres undefined)	A549 viability inconclusive, Nrf2 block 18µM
CN(C)S(=O)(=O)N1CCC(n2c(C(F)(F)F)nc3cccnc32)CC1	Nrf2 block inconclusive (no result: IL2 activator)
O=S(=O)(c1ccc(F)cc1)N1CCC(n2c(C(F)(F)F)nc3cccnc32)CC1	Nrf2 block 21µM (no result: IL2 activator)
Cc1ccc(Cn2c(SCC(=O)C(C)(C)C)nc3ccsc3c2=O)cc1	none (no result: IL2 activator, Nrf2 block)
Cc1cccc(-c2noc(CN(C(=O)c3ccccc3Cl)C(C)C)n2)c1	Nrf2 block inconclusive (no result: IL2 activator)
CC1(c2ccncc2)Nc2ccccc2-c2nc3ccccc3n21 (centres undefined)	ClpP mod 28µM
COc1ccc2c(c1)C1(Nc3ccccc3-c3nc4ccccc4n31)C(=O)N2 (centres undefined)	Nrf2 block inconclusive (no result: A549 viability)
CC1CCN(C(=O)COC(=O)CNC(=O)c2ccccc2F)CC1	none (no result: miR-21 reporter)
O=C(CNC(=O)c1ccccc1F)OCC(=O)N1CCCCC1	ClpP mod 25µM
COc1cccc(N2CC(NC(=O)c3cccc(OC)c3OC)CC2=O)c1 (centres undefined)	none (no result: IL2 activator, Nrf2 block)
CCC(=O)Nc1cc2c(C)cc(=O)oc2cc1C	ClpP mod 32µM
CCOC(=O)Cn1c(-c2ccccn2)nc2ccccc21	ClpP mod 28µM
CCN(CC)CCNC(=O)Cn1c(-c2ccccn2)nc2ccccc21	A549 viability inconclusive, ClpP mod 14µM
CSc1nn(Cc2ccc(C)cc2)c(N)c1S(=O)(=O)c1ccccc1	Nrf2 block 16µM (no result: IL2 activator)
CSc1nn(Cc2ccc(F)cc2)c(N)c1S(=O)(=O)c1ccc(Cl)cc1	Nrf2 block inconclusive (no result: IL2 activator)
COc1ccc2cc3c(N)nn(C(=O)c4ccc(F)cc4)c3nc2c1	Nrf2 block 5.8µM
COc1ccc2cc3c(N)nn(C(=O)Cc4c[nH]c5ccccc45)c3nc2c1	miR-21 reporter inconclusive, Nrf2 block 16µM
COc1ccc2cc3c(N)nn(C(=O)c4cccc(F)c4)c3nc2c1	Nrf2 block inconclusive
COc1cccc(CC(=O)n2nc(N)c3cc4ccc(OC)cc4nc32)c1	none
Cc1ccc2nsnc2c1NC(=O)Cc1ccc(Cl)cc1	none (no result: ClpP mod)
Cc1ccc2nsnc2c1NC(=O)c1ccc(-c2cc(Cl)ccc2Cl)o1	A549 viability 9.2µM, Nrf2 block 13µM
CC(C)c1ccc(NC(=O)CSC2=Nc3ccccc3C3=NC(CCC(=O)NCc4cccs4)C(=O)N23)cc1 (centres undefined)	none (no result: IL2 activator, Nrf2 block)
CCOC(=O)c1[nH]cnc1C(=O)Nc1cccc(N)n1	ClpP mod 14µM
